Our source for the inhibition values is PubChem BioAssay AID2313 (Broad Institute, 2010).

The structures appear in SMILES notation. Only a part is listed here, and it is no random draw. Some structures show a salt or complex split into parts, the way the source records it. The source made the active and inactive calls.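 The calls were made as follows: active = mean inhibition across valid replicates above about 65% (limit read from the data); inconclusive = mean under the limit, yet half or more replicates past it; inactive = the rest.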

This test is described as follows: Hedgehog pathway signaling inhibitors, primary screen, luminescence, Shh-LIGHT2 cells, Gli-luciferase (AID 2313).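 Also: pathway switched on by Shh-conditioned medium diluted 1 in 25 in low serum.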 Conditions: Shh-LIGHT2 Gli-luciferase reporter, 30 h; active compounds read high. On the technique in general: Reporter assays use an easily measured gene product as a stand-in for the process of interest.
`C/C1=C2N=C(/C=C3N=C(/C(C)=C4\[N-][C@@](C)([C@@H]5N=C1[C@](C)(CCC(=O)NCC(C)OP(=O)(O)O[C@@H]1[C@H](O)[C@H](n6cnc7cc(C)c(C)cc76)O[C@H]1CO)[C@H]5CC(N)=O)[C@@](C)(CC(N)=O)[C@@H]4CCC(N)=O)[C@@](C)(CC(N)=O)[C@@H]\3CCC(N)=O)C(C)(C)[C@@H]/2CCC(N)=O.[C-]#N.[Co+3]` (some centres undefined): the inhibition was inactive: 5.61%.

With `O=C(OC1CN2CCC1CC2)c1ccc(Cl)cc1` (centres undefined), the inhibition was inactive: 22.6%.

With `Cc1ccc(C(=O)OC2CN3CCC2CC3)cc1` (centres undefined), the inhibition is inactive: 14%.

Take `COc1cc2c(cc1NP(C)(=O)Oc1ccccc1)oc1ccccc12` (centres undefined): the inhibition was inactive: -12.6%.

By inhibition is commonly meant the relative decrease from the control value, in per cent.
